The assay has as its target GPR40 (Homo sapiens, UniProt O14842). As to the kind of experiment: Cell-based aequorin assay (CHO cells stably transfected with GPR40 and aequorin). Conditions: read-out: Aequorin Ec50; activation of human GPR40, CHO cells, 0.01% HSA.

The chains behind the UniProt entries cited, without tags or fusion partners.
UniProt O14842, whole entry: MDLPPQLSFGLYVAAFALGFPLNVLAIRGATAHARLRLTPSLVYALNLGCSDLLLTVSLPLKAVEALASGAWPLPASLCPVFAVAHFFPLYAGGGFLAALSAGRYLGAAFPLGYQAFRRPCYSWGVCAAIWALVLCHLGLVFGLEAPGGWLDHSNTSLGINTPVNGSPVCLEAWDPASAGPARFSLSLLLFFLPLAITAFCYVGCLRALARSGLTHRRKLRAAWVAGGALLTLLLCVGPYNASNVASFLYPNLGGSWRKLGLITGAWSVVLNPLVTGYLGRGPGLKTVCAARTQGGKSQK

This passage reports EC50 results from patent publication US8450522B2, “Conformationally constrained carboxylic acid derivatives useful for treating metabolic disorders” (Amgen Inc., priority 2008, dated 2013).

On to `COc1ccc(F)c(-c2ccc(COc3ccc4c(c3)C(C(C)C(=O)O)CC4)cc2C(C)(C)C)c1` (stereo not shown), for which the EC50 fell in the range of 100 to 1000 nM.
